Reference: publication PMC8654833 (Scientific Reports, 2021)

Protein sequences, listed by entry. Tags and fused reporters are not part of them.
UniProt P41595, whole entry, species assumed: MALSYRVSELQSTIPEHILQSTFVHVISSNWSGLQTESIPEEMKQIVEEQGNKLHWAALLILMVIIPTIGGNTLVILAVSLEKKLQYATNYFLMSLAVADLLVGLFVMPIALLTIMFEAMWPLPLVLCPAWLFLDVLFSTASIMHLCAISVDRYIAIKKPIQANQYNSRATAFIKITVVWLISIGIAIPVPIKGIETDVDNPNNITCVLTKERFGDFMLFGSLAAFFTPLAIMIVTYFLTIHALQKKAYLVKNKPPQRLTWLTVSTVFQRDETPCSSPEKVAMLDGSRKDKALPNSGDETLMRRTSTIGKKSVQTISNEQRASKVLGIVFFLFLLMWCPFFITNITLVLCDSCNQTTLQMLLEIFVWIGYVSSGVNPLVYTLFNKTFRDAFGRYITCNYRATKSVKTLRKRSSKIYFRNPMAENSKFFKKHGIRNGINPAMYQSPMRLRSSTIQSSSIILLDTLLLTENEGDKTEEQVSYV

Target: 5-HT2B (Homo sapiens, UniProt P41595)
Experiment: biochemical

CC(N)Cc1c[nH]c2ccc(OCc3cccs3)cc12 (stereo not shown) [BW, 1-[5-(thiophen-2-ylmethoxy)-1H-indol-3-yl]propan-2-amine]
pIC50: 7.50

pIC50: −log10 of the molar value.
